Chains of the proteins cited; added tags and fusions are not shown. Residues count along the entry.
UniProt O49821, 1-218: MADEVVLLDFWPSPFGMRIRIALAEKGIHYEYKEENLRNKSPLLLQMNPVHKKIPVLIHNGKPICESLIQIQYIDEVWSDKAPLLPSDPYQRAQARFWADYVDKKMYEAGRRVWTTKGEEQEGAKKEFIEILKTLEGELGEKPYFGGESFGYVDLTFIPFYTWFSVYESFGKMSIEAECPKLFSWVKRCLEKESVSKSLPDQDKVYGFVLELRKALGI

In publication PMC10958117, “G-site residue S67 is involved in the fungicide-degrading activity of a tau class glutathione S-transferase from Carica papaya” (The Journal of Biological Chemistry, 2024):

Biological target: tau class glutathione S-transferase from Carica papaya (TCpGST) (Carica papaya, UniProt O49821)
Test: inhibition of TCpGST-catalyzed thiram degradation, HPLC

With `O=[N+]([O-])c1ccc(Cl)c2nonc12` as the compound, how does the IC50 read?
The IC50 was 320 µM.
